Reference: patent US20210238225A1, “PEPTIDOMIMETIC INHIBITORS OF THE PEPTIDYL-PROLYL CIS/TRANS ISOMERASE (PIN1)” (DANA-FARBER CANCER INSTITUTE, INC., priority 2018, published 2021)

Chains of the proteins cited; added tags and fusions are not shown.
UniProt Q13526, whole entry: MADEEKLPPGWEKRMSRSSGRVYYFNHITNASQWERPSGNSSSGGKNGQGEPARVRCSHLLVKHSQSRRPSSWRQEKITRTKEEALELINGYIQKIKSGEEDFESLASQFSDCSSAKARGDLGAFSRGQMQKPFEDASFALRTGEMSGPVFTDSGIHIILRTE

Biological target: Pin1 (GST-Pin1) (Homo sapiens, UniProt Q13526)
Assay: Fluorescence polarization (FP) assay, binding to Pin1
Details: read-out: Ki, μM (FP Assay); competition with fluorescein-labeled peptide probe; 12 hours pre-incubation at 4° C.; Kenakin Ki equation

Row | SMILES | Ki [µM]
1 | NC(=O)NCCC[C@H](NC(=O)[C@H](Cc1ccc2ccccc2c1)NC(=O)[C@@H]1CCCCN1C(=O)C[C@H](CC(=O)O)NC(=O)CCl)C(N)=O | > 10
2 | COC(=O)CC[C@@H](NC(=O)CCl)C(=O)N1CCCC[C@H]1C(=O)N[C@@H](Cc1c[nH]c2ccccc12)C(=O)N[C@@H](CCCNC(N)=O)C(=O)NCc1ccc(C)cc1 | > 10
3 | COC(=O)CC[C@H](NC(=O)CCl)C(=O)N1CCCC[C@H]1C(=O)N(C)[C@@H](Cc1c[nH]c2ccccc12)C(=O)N[C@@H](Cc1ccc(O)cc1)C(N)=O | 4.8
4 | COC(=O)CC[C@H](NC(=O)CCl)C(=O)N1CCCC[C@H]1C(=O)N[C@@H](Cc1c[nH]c2ccccc12)C(=O)N[C@@H](CCCNC(N)=O)C(=O)N(C)Cc1ccc(C)cc1 | 0.2
